Amino acid sequences for entries named in this document (tags omitted).
UniProt P14416, whole entry, looked up: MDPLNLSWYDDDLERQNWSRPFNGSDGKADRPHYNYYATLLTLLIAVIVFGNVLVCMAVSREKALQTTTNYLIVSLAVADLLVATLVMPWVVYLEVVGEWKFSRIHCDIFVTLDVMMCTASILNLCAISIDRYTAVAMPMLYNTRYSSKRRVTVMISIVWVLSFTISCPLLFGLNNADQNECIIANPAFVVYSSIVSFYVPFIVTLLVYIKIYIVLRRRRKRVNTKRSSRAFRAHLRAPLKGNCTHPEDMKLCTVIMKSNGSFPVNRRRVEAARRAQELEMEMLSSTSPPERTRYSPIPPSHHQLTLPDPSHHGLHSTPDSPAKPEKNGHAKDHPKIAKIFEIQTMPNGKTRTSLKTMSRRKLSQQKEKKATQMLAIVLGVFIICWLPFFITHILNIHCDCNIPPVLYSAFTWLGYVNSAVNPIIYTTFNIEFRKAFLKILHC

This is a selection; strong and weak results do not stand in their true shares. Calls of active or inactive are those of the source. Cut-off read from the data, not from the text of the source: active = potentiation above about 50%; inconclusive = mostly about 30% to 49%; inactive = weaker than that.
The molecules below were run against D(2) dopamine receptor (Homo sapiens) (UniProt P14416) (assay: Beta-Arrestin HTS for Positive Allosteric Modulators of the Human D2 Dopamine Receptor: Potentiators). Details: DiscoveRx D2 beta-arrestin cells, luminescence, 90 min; active compounds read high; 100% = 57 uM dopamine signal.
From the text: There is great interest in identifying small molecule ligands for G-protein coupled receptors (GPCRs) as nearly 50% of all FDA-approved drugs target these important receptor proteins. […] Amongst the dopamine receptors (DARs), the D2 is arguably one of the most validated drug targets in neurology and psychiatry. For instance, all receptor-based antiparkinsonian drugs primarily work via stimulating the D2 DAR, whereas all FDA-approved antipsychotic agents are antagonists of this receptor. The D2 DAR is also therapeutically targeted in other disorders such as restless legs syndrome, tardive dyskinesia, Tourette's syndrome, and hyperprolactinemia.
To this end, a miniaturized qHTS screen was developed to be screened against the Molecular Libraries Small Molecule Repository (MLSMR). This assay seeks to identify potentiators against the D2 DAR.
NIH Molecular Libraries Probe Production Network [MLPCN]
NIH Chemical Genomics Center [NCGC]
PI Name: David Sibley, National Institutes of Neurological Disorders and Stroke
DiscoveRx D2 cells were thawed from frozen stock and seeded at 2,100 cells/ 3 uL/well media (DiscoveRx Plating Reagent 2) with MultiDrop Combi dispenser (Thermo Scientific, Logan, UT) onto white tissue culture treated 1536-well Aurora plates (Brooks Automation, Chelmsford, MA) and allowed to attach overnight at 37 deg C, 5% CO2. Next, 23 nL/well of compound solutions in DMSO were added with a pintool transfer (Kalypsis, San Diego, CA). As the positive control, 1 uL/well dopamine (EC100, 57 uM final concentration) diluted in buffer (HBSS + 10 mM HEPES + SMB + 0.1 %Tween-20) was dispensed to 1 column of each plate. EC20 (Dopamine at 50 nM final concentration) was dispensed to the rest of the plate except columns 1 &2 which were used as negative control (EC=0, buffer only), 1 uL/well as well. […] The plates were incubated at ambient temperature for 1 hour and then the luminescent signal was read on ViewLux plate reader (PerkinElmer, Waltham, MA).
`O=[N+]([O-])c1cc([N+](=O)[O-])c(CCNc2ccccc2)c([N+](=O)[O-])c1` was tested, and the potentiation was active: 62.8%. With `CCc1nc2c(n1)c1c(non1O)c1c2no[n+]1[O-]` the potentiation was active: 63.4%. `O=[N+]([O-])c1cc(Oc2ccc([N+](=O)[O-])cc2C(F)(F)F)cc([N+](=O)[O-])c1` was tested, and the potentiation was active: 53.5%.
